Assay outcomes: PubChem BioAssay, Broad Institute
UUG fidelity – modulators of start codon recognition fidelity in yeast; AID 602363; activity score, % at 18.7 µM; S. cerevisiae UUG-firefly luciferase reporter, luminescence/redox ratio; 0.13% of 350,000 active;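 active = replicate mean at a twofold rise or more, about +100% in these data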;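 note: firefly luciferase made from a UUG start codon reports start codon fidelity; reporter light over untreated wells divided by growth signal over untreated wells; some hits fall short of that in this replicate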
PglD inh – C. jejuni PglD acetyltransferase inhibitors, primary screen, biochemical, DTNB colorimetric, single point; UDP-N-acetylbacillosamine N-acetyltransferase PglD (Campylobacter jejuni); purified PglD enzyme, DTNB colorimetric CoA detection; inhibition, % at 12.5 µM; 0.098% of 360,000 active; in the data active = inhibition above about 16%, passing the limit was not always enough
CASP6 VEID inh – human caspase-6 inhibitors, primary screen, biochemical, VEID-R110 fluorescence, single point, set 2; 0.53% of 350,000 active; P55212; inhibition, % at 12.5 µM; purified caspase-6, Z-VEID-R110 cleavage fluorescence;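 active = mean inhibition across replicates at least about 35%, with every replicate also reaching that limit, limit read from the data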;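 note: 0% = median of neutral control wells and 100% = no fluorescence left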
RAD52 inh – RAD52 DNA annealing inhibitors, primary screen, biochemical, FRET, single point, set 2; DNA repair protein RAD52 homolog (Homo sapiens), P43351; 0.46% of 360,000 active; inhibition, % at 18.7 µM; recombinant RAD52 DNA annealing, FRET fluorescence;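 active = every replicate showing at least 50% inhibition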
GSIS activator – GLuc luminescence reporter in INS-1E cells, primary screen for activators of glucose-dependent secretion of insulin | INS-1E GLuc reporter insulin secretion, 2-3 h | activation, % at 16.6 µM | 0.61% of 370,000 active | AID 743287, 2014;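 active = lowest replicate activation of at least 40%, so every replicate reaches that level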;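 note: 0% = median of neutral control wells and 100% = median of IBMX positive control wells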
RAD54 branch – inhibitors of human RAD54 branch migration, primary screen, biochemical, fluorescence, single point; inhibition, % at 10.4 µM; DNA repair and recombination protein RAD54-like (Homo sapiens), Q92698; RAD54 Holliday junction branch migration, FAM/BHQ fluorescence; 0.14% of 360,000 active;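 active = mean normalized replicate activity at least 40 and at least half of replicates scoring 40 or more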;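 note: 0% = median of neutral control wells and 100% = median of positive control wells; inhibitors cause a drop in the FAM fluorescence signal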
* hit, by the source's call; . = no result. This is a sample that favours compounds with a hit; in the whole collection about 1.5% have one here.

The first 3 records (preview)
SMILES	UUG fidelity	PglD inh	CASP6 VEID inh	RAD52 inh	GSIS activator	RAD54 branch
COc1cccc(N/C=C/c2onc(C)c2[N+](=O)[O-])c1	-27.8	1.6	.	.	52.1*	2.5
O=S(=O)(Nc1c(S(=O)(=O)c2ccccc2)c2nc3ccccc3nc2n1C1CCCCC1)c1ccccc1	-10.5	2.7	41.3*	-16.6	-24.9	-0.1
Cc1ccc(C)c(NC(=O)Cn2nc(C)c3ccccc3c2=O)c1	-17.0	.	.	.	.	-2.4

The whole of this part (from the top)
SMILES	UUG fidelity	PglD inh	CASP6 VEID inh	RAD52 inh	GSIS activator	RAD54 branch
COc1cccc(N/C=C/c2onc(C)c2[N+](=O)[O-])c1	-27.8	1.6	.	.	52.1*	2.5
O=S(=O)(Nc1c(S(=O)(=O)c2ccccc2)c2nc3ccccc3nc2n1C1CCCCC1)c1ccccc1	-10.5	2.7	41.3*	-16.6	-24.9	-0.1
Cc1ccc(C)c(NC(=O)Cn2nc(C)c3ccccc3c2=O)c1	-17.0	.	.	.	.	-2.4
O=C(CCl)N1N=C(c2ccco2)CC1c1ccco1 (configuration not stated)	-3.1	1.3	60.1*	-68.2	6.4	-14.3
c1ccc(-c2csc(NC3=NCCCCC3)n2)cc1	-22.1	.	2.4	-7.3	3.4	-2.7
C[C@H](O)[C@@H]1CN2CCc3ccc(-c4ccc5c(c4)OCO5)cc3[C@@H]2C[C@@H]1N(C)C(=O)c1cccc(Cl)c1	.	.	-2.9	-87.0	188.2*	.
O=c1c(C(c2ccccc2)c2c(O)sc3ccccc3c2=O)c(O)sc2ccccc12	1.2	1.8	.	.	55.7*	8.8
C[n+]1c2n(c3ccccc31)N=C(c1ccc(-c3ccccc3)cc1)CS2	.	.	-0.3	70.5*	-35.6	.
C[n+]1c2n(c3ccccc31)N=C(c1ccccc1)CS2	-26.8	-1.9	18.6	9.4	-6.9	3.6
Cc1cccc(-n2c(C)c(C)c3c(N)ncnc32)c1	-21.3	2.5	0.0	-8.0	49.4*	-9.4
COc1ccc(OC)c(C2C3=C(CCCC3=O)Nc3nnnn32)c1 (configuration not stated)	-27.8	-0.7	.	.	24.4	-2.4
CC(=O)Nc1ccc(NC2=C/C(=N/S(=O)(=O)c3cccs3)c3ccccc3C2=O)cc1	.	.	98.5*	-4.0	-48.3	.
COc1ccc(S(=O)(=O)/N=C2\C=C(Nc3ccc(O)cc3)C(=O)c3ccccc32)cc1	-13.2	-2.1	78.2*	3.8	-13.4	2.1
Cc1ccc(NC2=C/C(=N/S(=O)(=O)c3cccs3)c3ccccc3C2=O)cc1C	-0.7	6.3	0.0	7.5	9.7	3.3
CN(C)CCN(C(=O)c1ccc(C(=O)c2ccccc2)cc1)c1nc2cc3c(cc2s1)OCCO3	9.0	-8.5	7.5	63.1*	2.0	-3.6
CN(C)CCN(C(=O)c1ccc(C(=O)c2ccccc2)cc1)c1nc2cc3c(cc2s1)OCO3	3.1	-3.3	-1.2	-5.6	-43.3	4.7
Cc1sc2ncnc(NCC3COc4ccccc4O3)c2c1C (configuration not stated)	.	.	.	.	-53.3	.
C[C@H]1CN([C@@H](C)CO)C(=O)CCCn2nncc2CO[C@H]1CN(C)C(=O)Nc1ccccc1F	2.5	2.7	-3.1	3.2	6.8	5.7
c1ccc(CCNc2ccc3ncc(-c4cccc5ccccc45)n3n2)nc1	-11.3	2.1	57.1*	-4.1	.	0.4
CC(=O)N1c2ccc(S(=O)(=O)N(C)CC(=O)NCc3ccc(C)cc3)cc2CC1C (configuration not stated)	2.7	-3.8	71.6*	-14.7	10.0	2.8
COCCn1c(SCC(=O)Nc2ccccc2OC)nc2c([nH]c3ccccc32)c1=O	-4.6	3.9	69.9*	-12.9	24.6	-1.0
COCCn1c(SCC(=O)Nc2ccccc2F)nc2c([nH]c3ccccc32)c1=O	-5.9	-1.9	-3.4	-18.9	57.2	-11.1
COc1ccc(N2C(=O)c3cccc4cc(Br)cc(c34)C2=O)cc1	-7.3	0.0	1.8	-11.4	1.5	-5.7
COc1cccc2c(N/N=C/c3ccccc3)cc(C)nc12	-11.2	-7.0	-1.9	0.8	23.4	2.6
COc1ccc2nc(C)cc(N/N=C/c3cccc(OC)c3O)c2c1	-4.7	-9.7	-1.0	49.2	13.5	108.1*
The listing continues:
SMILES	UUG fidelity	PglD inh	CASP6 VEID inh	RAD52 inh	GSIS activator	RAD54 branch
COc1ccc(/C=N/Nc2cc(C)nc3ccc(Br)cc23)cc1	4.9	-7.8	-6.2	4.4	4.6	118.6*
CCN1C(=O)c2ccccc2S(=O)(=O)c2ccc(C(=O)NCCCN(CC(C)C)CC(C)C)cc21	-2.4	-3.3	-0.6	8.1	.	-22.8
COc1cccc(-c2nc(NCc3ccco3)c3ccccc3n2)c1O	-8.5	-1.3	.	.	75.6*	6.2
COC(=O)c1sccc1NC(=S)N1CCN(C)CC1	.	.	-0.7	-6.5	41.9*	.
COc1cc(OC)c(OC)cc1CN1CCSCC1	1.4	-2.6	35.7*	-13.0	10.3	1.6
COc1ccc2ccc(=O)oc2c1CC=C(C)C	-14.2	2.8	-2.3	-7.3	62.4*	-3.4
COc1ccc(NC(=O)Nc2ccc3c(c2)C(=O)N([C@H](C)CO)C[C@@H](C)[C@H](CN(C)S(=O)(=O)c2ccc(OC)cc2)OCCCC[C@H](C)O3)cc1	-9.9	-2.6	.	.	11.2	17.3
CCN1CCN(C(=O)c2ccc3c(=O)n(CCC4=CCCCC4)c(=O)[nH]c3c2)CC1	9.5	-2.2	.	.	.	2.1
O=C(NCc1ccco1)c1ccc2c(=O)n(CCC3=CCCCC3)c(=O)[nH]c2c1	.	.	.	.	67.9*	.
C[C@@H]1CCCCO[C@H](CN(C)C(=O)Nc2ccc(C(F)(F)F)cc2)[C@H](C)CN([C@@H](C)CO)C(=O)c2cc(N(C)C)ccc2O1	6.8	5.0	-1.5	77.8*	9.0	-2.2
COc1ccc(NC(=O)N(C)C[C@H]2OCCCC[C@@H](C)Oc3ccc(N(C)C)cc3C(=O)N([C@H](C)CO)C[C@H]2C)cc1	67.4	1.4	4.7	3.0	-7.2	0.4
COc1ccc(NC(=O)N(C)C[C@H]2OCCCC[C@@H](C)Oc3ccc(N(C)C)cc3C(=O)N([C@@H](C)CO)C[C@@H]2C)cc1	10.6	-0.4	52.1*	-6.7	-6.9	1.6
O=C(O)CSc1nnc(NC(=O)CN2CCOCC2)s1	-4.4	-7.1	1.4	-7.6	95.9*	-2.6
C=C[C@@]1(C)CC(=O)[C@]2(O)[C@@]3(C)[C@@H](O)CCC(C)(C)[C@@H]3[C@H](OC(C)=O)[C@H](O)[C@@]2(C)O1	-5.8	4.4	1.3	-10.2	84.7*	-1.3
C=C[C@@]1(C)CC(=O)[C@]2(O)[C@@]3(C)[C@@H](O)CCC(C)(C)[C@@H]3[C@H](O)[C@H](OC(C)=O)[C@@]2(C)O1	-16.2	0.0	-4.7	3.5	98.8*	0.4
CCN1CCN(c2cc(C)c3cc(NC(=S)N4CCN(c5ccccc5)CC4)ccc3n2)CC1	-29.8	-1.3	-13.3	-13.9	4.9	7.9
Cc1ccc(-c2ccc([C@H]3[C@@H]4C=CCC[C@@]4(C)C(=O)N3Cc3ccccc3)c(F)c2)cc1	-18.0	-8.2	-2.1	-21.9	-1.6	0.3

3 entries already listed, arranged by the value under UUG fidelity, smallest number first.
SMILES	UUG fidelity	PglD inh	CASP6 VEID inh	RAD52 inh	GSIS activator
CC(=O)N1c2ccc(S(=O)(=O)N(C)CC(=O)NCc3ccc(C)cc3)cc2CC1C (configuration not stated)	2.7	-3.8	71.6*	-14.7	10.0
COc1ccc(/C=N/Nc2cc(C)nc3ccc(Br)cc23)cc1	4.9	-7.8	-6.2	4.4	4.6
CN(C)CCN(C(=O)c1ccc(C(=O)c2ccccc2)cc1)c1nc2cc3c(cc2s1)OCCO3	9.0	-8.5	7.5	63.1*	2.0
